Publication PMC6789782, “Safety Pharmacological Evaluation of the Coffee Component, Caffeoylquinic Acid, and Its Metabolites, Using Ex Vivo and In Vitro Profiling Assays” (Pharmaceuticals, 2019)

Test system: rat hippocampal slices

With `O=C(O)/C=C/c1ccc(O)c(O)c1` [CA, caffeic acid] the “Normalized PS AUC” value was 1.15 ± 0.02.
